Among the data in ChEMBL document CHEMBL4304752, “Synthesis and Molecular Properties of Nerve Agent Reactivator HLö-7 Dimethanesulfonate” (2019) are Activity values, retold here.

Each structure is given as a SMILES string. Activity calls are given as the source filed them. No cut-off for these calls is given here.

For test [1], the target named is T1, Acetylcholinesterase (Mus musculus) (UniProt P21836).
T1 sequence (whole entry): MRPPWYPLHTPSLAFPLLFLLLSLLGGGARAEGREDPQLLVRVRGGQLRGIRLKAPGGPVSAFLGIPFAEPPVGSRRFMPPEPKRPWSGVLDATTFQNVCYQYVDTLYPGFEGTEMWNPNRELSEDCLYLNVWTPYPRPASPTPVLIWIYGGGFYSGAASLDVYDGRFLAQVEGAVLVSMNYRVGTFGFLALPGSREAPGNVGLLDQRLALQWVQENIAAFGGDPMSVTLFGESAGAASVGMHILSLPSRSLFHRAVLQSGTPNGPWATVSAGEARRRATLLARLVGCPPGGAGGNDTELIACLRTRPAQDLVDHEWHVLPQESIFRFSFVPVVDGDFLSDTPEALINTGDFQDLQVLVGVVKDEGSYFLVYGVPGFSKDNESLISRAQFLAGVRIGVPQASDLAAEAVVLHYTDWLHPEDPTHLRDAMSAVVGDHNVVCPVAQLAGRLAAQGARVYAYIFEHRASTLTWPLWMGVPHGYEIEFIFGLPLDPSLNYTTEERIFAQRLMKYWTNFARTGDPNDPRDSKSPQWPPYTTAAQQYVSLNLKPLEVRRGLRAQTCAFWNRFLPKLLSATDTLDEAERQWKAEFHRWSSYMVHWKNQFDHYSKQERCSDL
Put plainly: Ex vivo reactivation of VX-induced inhibition of C57/Bl6 mouse AChE assessed as restoration of muscle function at 50 to 200 uM using acetylthiocholine iodide as substrate by mouse phrenic nerve hemidiaphragm assay relative to control. Further details: scale not given: the % may be the effect or the level left.

The target in test [2] is T1, Acetylcholinesterase (Mus musculus). In words: Ex vivo reactivation of GF-induced inhibition of C57/Bl6 mouse AChE assessed as restoration of muscle function at 50 to 200 uM using acetylthiocholine iodide as substrate by mouse phrenic nerve hemidiaphragm assay relative to control. More on the design: scale not given: the % may be the effect or the level left.
Test [3] shares this target. Put plainly: Ex vivo reactivation of GF-induced inhibition of C57/Bl6 mouse AChE assessed as restoration of mouse diaphragm AChE activity at 50 to 200 uM using acetylthiocholine iodide as substrate by mouse phrenic nerve hemidiaphragm assay.
Test [4] has the same target. Put plainly: Ex vivo reactivation of GB-induced inhibition of C57/Bl6 mouse AChE assessed as restoration of muscle function at 50 to 200 uM using acetylthiocholine iodide as substrate by mouse phrenic nerve hemidiaphragm assay relative to control. Further details: scale not given: the % may be the effect or the level left.
The target is the same in test [5]. In words: Ex vivo reactivation of GB-induced inhibition of C57/Bl6 mouse AChE assessed as restoration of mouse diaphragm AChE activity at 50 to 200 uM using acetylthiocholine iodide as substrate by mouse phrenic nerve hemidiaphragm assay.
Test [6] shares this target. In words: Ex vivo reactivation of VX-induced inhibition of C57/Bl6 mouse AChE assessed as restoration of mouse diaphragm AChE activity at 50 to 200 uM using acetylthiocholine iodide as substrate by mouse phrenic nerve hemidiaphragm assay.

As for `NC(=O)c1cc[n+](COC[n+]2ccc(/C=N/O)cc2/C=N/O)cc1`, the Activity in test [1], in test [2] and in test [4] was 60% each time. Besides, the outcome in test [3], in test [5] and in test [6] was Active.
